Experimental data reported in patent US5446147A (Trustees of the University of Pennsylvania, priority 1992, dated 1995).

Protein sequences, listed by entry. Tags and fused reporters are not part of them.
UniProt P61169, whole entry: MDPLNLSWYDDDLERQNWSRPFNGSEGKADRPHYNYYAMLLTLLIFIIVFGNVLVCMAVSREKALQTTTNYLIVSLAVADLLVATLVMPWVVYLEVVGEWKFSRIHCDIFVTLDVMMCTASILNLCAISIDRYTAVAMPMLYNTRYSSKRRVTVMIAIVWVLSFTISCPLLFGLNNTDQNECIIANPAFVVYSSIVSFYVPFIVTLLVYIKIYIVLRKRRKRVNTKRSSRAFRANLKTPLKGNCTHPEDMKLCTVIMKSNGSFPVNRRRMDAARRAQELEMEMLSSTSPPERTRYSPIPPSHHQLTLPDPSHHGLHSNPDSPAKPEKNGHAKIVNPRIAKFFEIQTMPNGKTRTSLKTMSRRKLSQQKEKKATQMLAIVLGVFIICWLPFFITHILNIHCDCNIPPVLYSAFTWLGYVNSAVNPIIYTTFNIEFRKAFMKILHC

How the values were obtained:
[1] = biological target: T1, dopamine D2 receptor (Rat Striatal Membranes) (Rattus norvegicus, UniProt P61169); assay: Competition for ^125 I-FIDA-1 binding to rat striatal membranes
T1 construct: Rat tissue homogenates were prepared as described previously; from tissue; host or cells: rat striatal membranes (tissue homogenate)
Method: (§1) Rat tissue homogenates were prepared as described previously. Murphy, R. A., et al., J. Med. Chem. 33, 171-178 (1990). The binding assays were performed by incubating 50 μL of tissue preparations containing 40-60 μg of protein with appropriate amounts of ^125 I-labeled ligand and competitors in a total volume of 0.2 mL of the assay buffer. After an incubation period of 15 min at 37° C. (with stirring), the samples were rapidly filtered in a cell harvester (Brandel M-24R) under vacuum through Whatman GF/B glass-fiber filters pretreated with […] protamine base and washed with 3×5 mL of cold (4° C.) 50 mM Tris-HCI buffer, pH 7.4. The nonspecific binding was obtained in the presence of 10 μM (+)butaclamol. The filters were counted in a γ counter (Beckman 5500) at an efficiency of 70%. Both Scatchard and competition experiments were analyzed with the iterative nonlinear least squares curve-fitting program LIGAND.

[2] = biological target: T1, dopamine D2 receptor (Rat Striatal Membranes); assay: Competition for ^125 I-FIDA-2 binding to rat striatal membranes
Method: as §1

## NCCc1c[nH]c2ccc(O)cc12 [Compound 5-HT]
[1]
  Ki: > 5 µM
[2]
  Ki: > 3 µM
